Measured values reported in publication PMC7571155, “Design, Synthesis and Biological Investigation of Flavone Derivatives as Potential Multi-Receptor Atypical Antipsychotics” (Molecules, 2020).

The chains behind the UniProt entries cited, without tags or fusion partners.
UniProt P08908, whole entry: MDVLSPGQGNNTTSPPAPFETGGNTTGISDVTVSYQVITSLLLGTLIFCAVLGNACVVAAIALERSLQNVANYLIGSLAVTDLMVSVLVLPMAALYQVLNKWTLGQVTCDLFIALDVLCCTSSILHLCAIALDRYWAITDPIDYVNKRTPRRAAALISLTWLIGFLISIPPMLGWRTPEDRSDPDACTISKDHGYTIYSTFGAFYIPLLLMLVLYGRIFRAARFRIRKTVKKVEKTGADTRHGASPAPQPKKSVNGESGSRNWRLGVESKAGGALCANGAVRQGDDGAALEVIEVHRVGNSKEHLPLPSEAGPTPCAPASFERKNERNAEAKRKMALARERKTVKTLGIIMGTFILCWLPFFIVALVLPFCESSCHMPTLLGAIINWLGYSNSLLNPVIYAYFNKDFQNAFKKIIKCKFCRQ
UniProt P28223, whole entry: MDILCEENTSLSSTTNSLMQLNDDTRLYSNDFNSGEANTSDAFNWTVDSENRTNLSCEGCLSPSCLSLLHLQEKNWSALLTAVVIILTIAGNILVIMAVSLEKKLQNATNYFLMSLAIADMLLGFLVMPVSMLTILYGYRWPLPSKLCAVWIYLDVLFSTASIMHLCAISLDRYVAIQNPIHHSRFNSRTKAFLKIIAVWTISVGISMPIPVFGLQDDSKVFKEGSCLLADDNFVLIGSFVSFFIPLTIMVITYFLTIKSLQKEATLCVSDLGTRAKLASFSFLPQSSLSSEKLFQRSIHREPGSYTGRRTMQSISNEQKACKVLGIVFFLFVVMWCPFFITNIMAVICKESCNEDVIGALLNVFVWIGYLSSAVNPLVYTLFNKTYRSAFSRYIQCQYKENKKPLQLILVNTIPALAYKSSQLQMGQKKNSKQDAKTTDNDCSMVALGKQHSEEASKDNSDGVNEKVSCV

Tests used:
5-HT1A receptor = biological target: T1, 5-HT1A receptor (Homo sapiens, UniProt P08908); assay: Intrinsic activity, FLIPR calcium assay, HEK293/5-HT1A; type: cell-based; details: agonist mode, n = 3
T1 construct: expressed in transfected cells; host or cells: HEK293

5-HT2A receptor = 5-HT2A receptor (Homo sapiens, UniProt P28223); assay: Intrinsic activity, FLIPR calcium assay, HEK293/5-HT2A; details: agonist mode, n = 3

NCCc1c[nH]c2ccc(O)cc12 [Compound 5-HT, reference compound]
Activation (10 μM, %) (5-HT1A receptor): 99.7 ± 3.8%
Activation (10 μM, %) (5-HT2A receptor): 100.2 ± 2.6%
